This test has as its system Jurkat E6.1 viability, ATP luminescence, 48 h. As to the kind of experiment: viability loss in Jurkat T cells – cell-based, ATP luminescence, 48 h, 60K MLSMR, cytotoxicity control, dose response (AID 464).

The structures appear in SMILES notation.

Here are results for 1 compound from PubChem BioAssay AID464 (The Scripps Research Institute Molecular Screening Center, 2006).

As a reminder, the CC50 is the concentration at which the toxic effect on the cells reaches its halfway point. As for `CCc1nc2c(n1)c1c(non1O)c1c2no[n+]1[O-]`, the CC50 is 3.21 µM.
